Assay [1] concerns the target T1, CB1 receptors (Mus musculus, UniProt P47746).
T1 construct: expressed in transfected cells
The assay can be described thus: AKT phosphorylation by Luminex multiplex immunoassay in CB1-expressing DBT subclones. It is filed as cell-based. Particulars: 1 µM.

Protein sequences, listed by entry. Tags and fused reporters are not part of them.
UniProt P47746, whole entry: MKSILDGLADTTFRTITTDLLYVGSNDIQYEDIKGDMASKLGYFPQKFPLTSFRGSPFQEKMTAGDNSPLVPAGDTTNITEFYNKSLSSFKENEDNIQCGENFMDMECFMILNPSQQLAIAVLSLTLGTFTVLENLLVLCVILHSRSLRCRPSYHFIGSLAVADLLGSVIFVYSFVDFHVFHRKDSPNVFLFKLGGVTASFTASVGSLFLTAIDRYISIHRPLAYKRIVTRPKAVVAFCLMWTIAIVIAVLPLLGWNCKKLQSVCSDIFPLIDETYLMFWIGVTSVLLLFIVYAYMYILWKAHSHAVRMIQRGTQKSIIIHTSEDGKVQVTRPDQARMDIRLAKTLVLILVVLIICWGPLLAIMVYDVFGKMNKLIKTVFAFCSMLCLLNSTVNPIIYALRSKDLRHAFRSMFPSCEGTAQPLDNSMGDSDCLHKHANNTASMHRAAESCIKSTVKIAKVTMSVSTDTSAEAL

Assay [2] deals with T1, CB1 receptors. The assay can be described thus: ERK1/2 phosphorylation by Western blot in CB1-expressing DBT subclones. Type of assay: cell-based. As to conditions: 1 µM.

For the substance “(−)-cis-3-[2-hydroxy-4-(1,1-dimethylheptyl)phenyl]-trans-4-(3-hydroxypropyl) cyclohexanol [CP-55,940]”, in assay [1] (CB1-high subclone), the “Time of peak of AKT phosphorylation” value worked out at 3 min and the “Time of return of AKT phosphorylation to the basal level” value stood at 5 min. Moreover, the AKT phosphorylation entry in assay [1] (CB1-low subclone) is on record as “did not significantly increase”. Besides, the AKT phosphorylation result in assay [1] (CB1-mid and CB1-high subclones) is given as “most pronounced increase”. The “ERK1/2 phosphorylation above vehicle-treated controls” value in assay [2] (5 min, CB1-low, CB1-mid, CB1-high subclones) is on record as “significant increase”. In assay [2] (CB1-expressing subclones), the “Time of peak of ERK1/2 phosphorylation” value was 5 min and the “Time of return of ERK1/2 phosphorylation to basal” value lay in the range of 20 to 30 min.

Source of the values: paper PMC2806825, “The Expression Level of CB1 and CB2 Receptors Determines Their Efficacy at Inducing Apoptosis in Astrocytomas” (PLoS ONE, 2010).
